In EP4837910A1, “ISOXAZOLINE COMPOUND AND PREPARATION METHOD THEREFOR, HERBICIDAL COMPOSITION, AND USE” (dated 2026):

What was measured:
[1] = test system: Monocotyledonous and dicotyledonous weed; test: Pre-emergence test on weeds (greenhouse, sprayed immediately after sowing); conditions: Dosage 240 g a.i./ha, after 4 weeks in greenhouse, fresh weight control rate
[2] = test system: Triticum aestivum; test: Pre-emergence test, crop damage (greenhouse, sprayed immediately after sowing); conditions: Dosage 240 g a.i./ha, after 4 weeks in greenhouse, fresh weight control rate
[3] = test system: Zea mays; test: as above; conditions: Dosage 240 g a.i./ha, after 4 weeks in greenhouse, fresh weight control rate
[4] = test system: Monocotyledonous and dicotyledonous weed; test: Post-emergence test on weeds (greenhouse, spray tower); conditions: Dosage 240 g a.i./ha, after 3 weeks of cultivation in a greenhouse, fresh weight control rate

| Compound | activity level of plant damage (growth control rate), Digitaria sanguinalis ([1]; Digitaria sanguinalis) | activity level of plant damage (growth control rate), Lolium multiflorum ([1]; Lolium multiflorum) | activity level of plant damage (growth control rate), Setaria viridis ([1]; Setaria viridis) | activity level of plant damage (growth control rate), Triticum aestivum [2] | activity level of plant damage (growth control rate), Zea mays [3] | Avena fatua, activity level of plant damage (growth control rate) [4] | activity level of plant damage (growth control rate), Descurainia sophia ([1]; Descurainia sophia) |
| --- | --- | --- | --- | --- | --- | --- | --- |
| C=CC1(C(=O)N[C@H](C)C(=O)N(C)OC)CC(c2cc(Cl)cc(Cl)c2)=NO1 (stereo partly shown) | 7 (Level 7: growth control rate greater than or equal to 80% and less than 90%) | 6 (Level 6: growth control rate greater than or equal to 70% and less than 80%) | 7 (Level 7: growth control rate greater than or equal to 80% and less than 90%) | 1 (Level 1: growth control rate less than 10%) | 2 (Level 2: growth control rate greater than or equal to 10% and less than 20%) | 5 (Level 5: growth control rate greater than or equal to 50% and less than 70%) |  |
| C=C[C@@]1(C(=O)N[C@H](C)C(=O)NOC)CC(c2cc(Cl)cc(Cl)c2)=NO1 |  |  |  | 0 | 0 | 9 | 8 (Level 8: growth control rate greater than or equal to 90% and less than 100%) |
